EC50 data for 1 compound are collected here from ChEMBL document CHEMBL1130264 (J Med Chem, 1997).

Each structure is given as a SMILES string.

This test is filed under the species Bos taurus. Nature of the test: Ability to stimulate catechloamine release in bovine adrenal chromaffin cells.

As a reminder, the EC50 is the midpoint of the concentration-response curve.

The compound `CC(=O)C1=CCCC2CCC1N2` (stereo unspecified) gave an EC50 of 2000 nM.
